Our source for the Ki values is patent US6344179B1, “Fluoralkenyl nortropanes” (Emory University, priority 1999, dated 2002).

Protein sequences, listed by entry. Tags and fused reporters are not part of them.
UniProt Q01959, whole entry: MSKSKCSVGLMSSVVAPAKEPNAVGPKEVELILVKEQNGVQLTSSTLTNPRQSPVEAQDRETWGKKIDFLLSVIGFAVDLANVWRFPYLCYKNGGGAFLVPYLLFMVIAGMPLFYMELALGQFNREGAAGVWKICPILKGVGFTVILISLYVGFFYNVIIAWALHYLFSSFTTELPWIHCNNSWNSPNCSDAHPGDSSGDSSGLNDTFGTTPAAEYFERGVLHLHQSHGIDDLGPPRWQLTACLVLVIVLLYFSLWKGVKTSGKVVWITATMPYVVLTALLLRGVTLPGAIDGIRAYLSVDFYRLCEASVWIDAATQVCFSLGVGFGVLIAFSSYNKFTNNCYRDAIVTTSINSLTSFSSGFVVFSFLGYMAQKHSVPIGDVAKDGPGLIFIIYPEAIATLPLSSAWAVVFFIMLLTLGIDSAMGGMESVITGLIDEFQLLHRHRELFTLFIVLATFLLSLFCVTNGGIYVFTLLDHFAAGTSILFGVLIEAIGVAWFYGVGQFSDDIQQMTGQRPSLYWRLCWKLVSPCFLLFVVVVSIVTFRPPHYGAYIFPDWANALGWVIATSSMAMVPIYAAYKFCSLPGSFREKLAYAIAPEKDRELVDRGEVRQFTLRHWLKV

This assay addresses T1, human DAT (Homo sapiens, UniProt Q01959).
T1 construct: expressed in transfected cells
Briefly: Competitive binding in transfected cell lines, [3H]WIN 35428. Conditions: [3H]WIN 35428 as reference; cells transfected with human DAT.

“N-((E)-4-fluorobut-2-en-1-yl)-2β-carbomethoxy-3β-phenylnortropane [6a]” returned a Ki of 7.52 nM.

In general, Ki refers to the dissociation constant of the complex between target and ligand, obtained from inhibition or displacement.
